SMILES strings stand for the structures. This is a selection; strong and weak results do not stand in their true shares. Activity calls are given as the source filed them. No stated cut-off is given here; in the data, active means inhibition above about 15%; inconclusive means no clear call, values can overlap the other calls; inactive means below that.

Protein sequences, listed by entry. Tags and fused reporters are not part of them.
UniProt Q9NXA8, whole entry: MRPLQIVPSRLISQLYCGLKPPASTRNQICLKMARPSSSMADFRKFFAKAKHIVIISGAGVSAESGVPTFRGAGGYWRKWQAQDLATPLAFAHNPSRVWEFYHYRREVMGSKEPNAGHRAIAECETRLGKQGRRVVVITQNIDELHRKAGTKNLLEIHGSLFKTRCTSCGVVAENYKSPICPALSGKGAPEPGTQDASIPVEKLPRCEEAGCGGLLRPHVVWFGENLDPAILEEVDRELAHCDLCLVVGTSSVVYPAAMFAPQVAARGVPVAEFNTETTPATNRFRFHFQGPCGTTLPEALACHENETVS

This assay concerns the target NAD-dependent protein deacylase sirtuin-5, mitochondrial (Homo sapiens) (UniProt Q9NXA8). Briefly: SIRT5 desuccinylase inhibitors, primary screen, biochemical, fluorescence imaging, single point, set 5 (AID 652115). To be noted: Purified SirT5, succinyl-peptide AMC, trypsin-coupled fluorescence; at 15 µM; hits give high values.
The inhibition is the change of the read-out against control, counted positive when it falls. For `Cc1cccc(NC2(C#N)CCN(Cc3ccccc3)CC2)c1`, the inhibition is inactive: -3.77%. Take `CSc1ccccc1C(=O)NCC1(N2CCCCC2)CCCCC1`: the inhibition is inactive: -1.9%. The figure for `COc1ccc(C(=O)NCC2(N3CCCCC3)CCCCC2)c(OC)c1OC` is inactive: 0.314%; for `CC(C)(C)OC(=O)N1CCC(N(C(=O)c2ccccc2)c2ccc(F)cc2)CC1` it is inactive: -0.533%; for `CCC(c1nnnn1C1CCCC1)N1CCC(n2c(=O)[nH]c3ccccc32)CC1` (stereo unspecified) it is inactive: -0.328%. The figure for `COc1ccc(C(=O)NCC2(N3CCCCC3)CCCCC2)cc1` is inactive: -6.79%; for `CCCCn1nnnc1C(CC)N1CCC(n2c(=O)[nH]c3ccccc32)CC1` (stereo unspecified) it is inactive: -0.422%.

Turning to `O=C(NCC1(N2CCCCC2)CCCCC1)c1cccs1`, the inhibition was inactive: -1.35%. Regarding `CCCCn1nnnc1C(c1cccs1)N1CCC(n2c(=O)[nH]c3ccccc32)CC1` (stereo unspecified), the inhibition is inactive: 0.81%.

In the case of `O=C(NCC1(N2CCCCC2)CCCCC1)c1ccc(=O)[nH]c1`, the inhibition was inactive: -2.97%. In the case of `COc1ccc(Cl)cc1C(=O)NCC1(N2CCOCC2)CCCCC1`, the inhibition is inactive: -4.83%. Regarding `N#CC1(Nc2ccccc2)CCN(Cc2ccccc2)CC1`, the inhibition is inactive: 0.456%. The figure for `O=C(NCC1(N2CCCCC2)CCCCC1)c1ccc(Cl)s1` is inactive: -0.184%; for `O=c1[nH]c2ccccc2n1C1CCN(C(c2cc3ccccc3o2)c2nnnn2C2CCCCC2)CC1` (stereo unspecified) it is inactive: -1.78%; for `O=C(OC1CN2CCC1CC2)C1c2ccccc2Oc2ccccc21` (stereo unspecified) it is inactive: -0.572%. The figure for `CCCCn1nnnc1C(c1ccc(OC)cc1)N1CCC(n2c(=O)[nH]c3ccccc32)CC1` (stereo unspecified) is inactive: -1.03%; for `CCOC(=O)N1CCC(Nc2ccc(OC)cc2)CC1` it is inactive: -11.9%. The figure for `Cc1cc(C)cc(N(C(=O)c2ccccc2)C2CCN(C(=O)OC(C)(C)C)CC2)c1` is inactive: 6.06%; for `O=C(NCC1(N2CCCCC2)CCCCC1)c1ccc(Cl)nc1` it is inactive: 3.62%; for `O=c1[nH]c2ccccc2n1C1CCN(C(c2ccccc2OC(F)(F)F)c2nnnn2C2CCCCC2)CC1` (stereo unspecified) it is inactive: -0.197%. Take `CCOC(=O)N1CCC(Nc2ccc(F)cc2)CC1`: the inhibition is inactive: 1.67%. For the compound `CCCCOc1ccc(C(=O)NCC2(N3CCOCC3)CCCCC2)cc1`, the inhibition is inactive: -0.567%. In the case of `CCCCn1nnnc1C(c1cc2ccccc2o1)N1CCC(n2c(=O)[nH]c3ccccc32)CC1` (stereo unspecified), the inhibition was inactive: -2.94%. As for `O=C(NCC1(N2CCCCC2)CCCCC1)c1ccc(F)cc1`, the inhibition is inactive: 0.407%. With `O=C1CCN(Cc2ccccc2)CC1`, the inhibition is inactive: -2%. Under `CC(C)(C)n1nnnc1C(c1ccccc1)N1CCC(n2c(=O)[nH]c3ccccc32)CC1` (stereo unspecified) stands inactive: -2.71%. The figure for `CCOc1ccc(C)cc1CN(CCCl)CCCl` is inactive: -7.32%; for `COc1cc(C(=O)NCC2(N(C)C)CCCCC2)ccc1OC(F)F` it is inactive: -2.32%; for `O=c1[nH]c2ccccc2n1C1CCN(C(c2cccc3ccccc23)c2nnnn2C2CCCC2)CC1` (stereo unspecified) it is inactive: -2.02%. With `O=c1[nH]c2ccccc2n1C1CCN(C(c2ccccc2)c2nnnn2C2CCCCC2)CC1` (stereo unspecified), the inhibition was inactive: -0.8%. Turning to `O=c1[nH]c2ccccc2n1C1CCN(C(c2ccccc2OC(F)(F)F)c2nnnn2C2CCCC2)CC1` (stereo unspecified), the inhibition was inactive: -0.999%. The figure for `CSc1ccc(C(=O)NCC2(N3CCOCC3)CCCCC2)cc1` is inactive: -0.497%; for `O=C(NCC1(N2CCCCC2)CCCCC1)c1cccc([N+](=O)[O-])c1` it is inactive: -3.39%. Consider `O=C(NCC1(N2CCCCC2)CCCCC1)c1ccc(OC(F)F)cc1`, for which the inhibition was inactive: -2.15%. Take `CC(C)(C)n1nnnc1C(c1ccccc1OC(F)(F)F)N1CCC(n2c(=O)[nH]c3ccccc32)CC1` (stereo unspecified): the inhibition was inactive: -0.429%. For the compound `COc1cc(C(=O)NCC2(N3CCCCC3)CCCCC2)ccc1OC(F)F`, the inhibition was inactive: 0.786%. As to `COc1ccc(NC2CCN(C(=O)OC(C)(C)C)CC2)cc1`, the inhibition was inactive: -0.271%. `CC(C)c1ccc(C(=O)NCC2(N3CCOCC3)CCCCC2)cc1`: the inhibition was inactive: -2.61%.

For the compound `CN1CCN(CCOC(=O)C(O)(c2ccccc2)c2ccccc2)CC1`, the inhibition was inactive: -4.76%. The figure for `CCCCn1nnnc1C(c1cccc2ccccc12)N1CCC(n2c(=O)[nH]c3ccccc32)CC1` (stereo unspecified) is inactive: 1.11%. The figure for `O=C(NCC1(N2CCCCC2)CCCCC1)c1cccc(C(F)(F)F)c1` is inactive: -4.81%; for `CCC(c1nnnn1C(C)(C)C)N1CCC(n2c(=O)[nH]c3ccccc32)CC1` (stereo unspecified) it is inactive: 1.32%; for `O=C(NCC1(N2CCOCC2)CCCCC1)c1cc(F)c(F)cc1Cl` it is inactive: -3.1%.

Regarding `COc1cc(OC)c(C(=O)NCC2(N(C)C)CCCCC2)cc1OC`, the inhibition is inactive: -1.74%. As for `CCCCn1nnnc1C(c1ccnc2ccccc12)N1CCC(n2c(=O)[nH]c3ccccc32)CC1` (stereo unspecified), the inhibition was inactive: -2.08%. The figure for `CC(C)c1ccc(NC2CCN(C(=O)OC(C)(C)C)CC2)cc1` is inactive: 0.438%. The figure for `CN(C)c1cccc(C(=O)NCC2(N3CCCCC3)CCCCC2)c1` is inactive: -1.94%. Under `COc1ccc(CN(CCCl)CCCl)cc1Cl` stands inactive: 10.6%; under `COc1ccc(C(c2nnnn2C2CCCC2)N2CCC(n3c(=O)[nH]c4ccccc43)CC2)cc1` (stereo unspecified), inactive: -0.81%. For the compound `CCCOc1ccc(C(=O)NCC2(N(C)C)CCCCC2)cc1OC`, the inhibition is inactive: -3.64%. The figure for `CN1CCC(Nc2cccc(F)c2)CC1` is inactive: 11.8%; for `O=C(NCC1(N2CCCCC2)CCCCC1)c1cncc(Br)c1` it is inactive: -5.21%. `O=c1[nH]c2ccccc2n1C1CCN(C(c2ccnc3ccccc23)c2nnnn2C2CCCC2)CC1` (stereo unspecified): the inhibition is inactive: 2.27%. The figure for `COc1ccc(C(=O)NCC2(N3CCOCC3)CCCCC2)cc1OC` is inactive: 6.64%; for `COc1cc(C(=O)NCC2(N3CCOCC3)CCCCC2)cc(OC)c1C` it is inactive: 0.484%.

Take `CCCCn1nnnc1C(c1ccccc1)N1CCC(n2c(=O)[nH]c3ccccc32)CC1` (stereo unspecified): the inhibition was inactive: -0.158%. The figure for `O=C(NCC1(N2CCOCC2)CCCCC1)c1cc(Br)ccc1Cl` is inactive: -5.96%; for `O=c1[nH]c2ccccc2n1C1CCN(C(c2cccs2)c2nnnn2C2CCCC2)CC1` (stereo unspecified) it is inactive: 0.988%; for `CCCCn1nnnc1C(c1cccc(OC)c1OC)N1CCC(n2c(=O)[nH]c3ccccc32)CC1` (stereo unspecified) it is inactive: 10.9%. The figure for `COc1cccc(C(c2nnnn2C(C)(C)C)N2CCC(n3c(=O)[nH]c4ccccc43)CC2)c1OC` (stereo unspecified) is inactive: -1.66%.

With `N#Cc1ccc(C(=O)NCC2(N3CCCCC3)CCCCC2)cc1`, the inhibition was inactive: -3.18%. Under `CC(C)(C)OC(=O)N1CCC(N(C(=O)c2ccccc2)c2ccc(Cl)cc2)CC1` stands inactive: 5.18%. As to `CC(C)(C)n1nnnc1C(c1cccc2ccccc12)N1CCC(n2c(=O)[nH]c3ccccc32)CC1` (stereo unspecified), the inhibition is inactive: 4.54%. On to `CN(C)C1(CNC(=O)c2cccc(C#N)c2)CCCCC1`, for which the inhibition was inactive: -0.827%. Regarding `O=c1[nH]c2ccccc2n1C1CCN(C(c2ccccc2)c2nnnn2C2CCCC2)CC1` (stereo unspecified), the inhibition is inactive: 1.65%.

`Cc1cc(N(CCCl)CCCl)ccc1C=O`: the inhibition was inactive: 0.912%.

Consider `Fc1ccccc1NC1CCN(Cc2ccccc2)CC1`, for which the inhibition is inactive: 1.29%. In the case of `Cc1ccc(C(=O)NCC2(N3CCCCC3)CCCCC2)o1`, the inhibition is inactive: -2.21%. Consider `Cc1ccc(NC2(C#N)CCN(Cc3ccccc3)CC2)cc1`, for which the inhibition was inactive: 2.15%. The figure for `CCC(c1nnnn1C1CCCCC1)N1CCC(n2c(=O)[nH]c3ccccc32)CC1` (stereo unspecified) is inactive: 5.69%. `COc1cccc(C(c2nnnn2C2CCCCC2)N2CCC(n3c(=O)[nH]c4ccccc43)CC2)c1OC` (stereo unspecified): the inhibition is inactive: -0.729%. `CC(=O)N(c1ccccc1)C1CCNCC1`: the inhibition is inactive: -4.81%. In the case of `COc1cc(OC)cc(C(=O)NCC2(N3CCCCC3)CCCCC2)c1`, the inhibition was inactive: 0.74%. In the case of `O=c1[nH]c2ccccc2n1C1CCN(C(c2ccnc3ccccc23)c2nnnn2C2CCCCC2)CC1` (stereo unspecified), the inhibition is inactive: 0.88%. The figure for `Cn1c(=O)[nH]cc(N(CCCl)CCCl)c1=O` is inactive: -2.69%; for `O=C(NCC1(N2CCCCC2)CCCCC1)c1ccco1` it is inactive: -0.145%.

Regarding `COc1ccc(C(c2nnnn2C2CCCCC2)N2CCC(n3c(=O)[nH]c4ccccc43)CC2)cc1` (stereo unspecified), the inhibition was inactive: -4.67%. `CC(C)(C)n1nnnc1C(c1ccnc2ccccc12)N1CCC(n2c(=O)[nH]c3ccccc32)CC1` (stereo unspecified): the inhibition was inactive: 0.628%. With `NN(c1ccccc1)C1CCN(CCc2ccccc2)CC1`, the inhibition is inactive: -1.31%. Under `O=C(O)C1(Nc2ccccc2)CCN(Cc2ccccc2)CC1` stands inactive: -1.33%. For `CC(C)(C)OC(=O)N1CCC(Nc2ccccc2)CC1`, the inhibition is inactive: -3.69%. Take `O=c1[nH]c2ccccc2n1C1CCN(C(c2cc3ccccc3o2)c2nnnn2C2CCCC2)CC1` (stereo unspecified): the inhibition is inactive: 8.6%.

Regarding `CCCOc1ccc(C(=O)NCC2(N(C)C)CCCCC2)cc1`, the inhibition was inactive: -6.77%.

Take `COc1cccc(C(=O)N(c2cc(C)cc(C)c2)C2CCN(C(=O)OC(C)(C)C)CC2)c1`: the inhibition is inactive: 8.99%. Turning to `COc1cccc(C(c2nnnn2C2CCCC2)N2CCC(n3c(=O)[nH]c4ccccc43)CC2)c1OC` (stereo unspecified), the inhibition is inactive: -2.58%. The figure for `COc1cc(OC)cc(C(=O)NCC2(N3CCOCC3)CCCCC2)c1` is inactive: -1.2%.

These data come from PubChem BioAssay AID652115 (Broad Institute, 2013).
